Target: T1, Acetylcholinesterase from Electrophorus electricus (Electrophorus electricus, UniProt O42275)
T1 construct: purchased Sigma-Aldrich
Format: biochemical
Details: mean ± SD, triplicate; 30 min at 25 °C, absorbance 405 nm
Protocol: This bioassay was set up after Ellman. This method is the most commonly used to screen compounds against this target. All reagents, buffers, and salts were purchased from Sigma-Aldrich (Saint-Louis, MO, USA). Two buffer solutions were prepared extemporaneously: buffer A (50 mM Tris-HCl pH 8 + 0.1% BSA); and buffer B (50 mM Tris-HCl pH 8 + 0.1 M NaCl + 0.02 M MgCl2.6H2O). Acetylcholinesterase from Electrophorus electricus (EC 3.1.1.7, AChE−0.2 U/mL) was dissolved in buffer A, 5,5′-dithiobis-2-nitrobenzoic acid (DTNB-Ellman’s reagent−3 mM) in buffer B, and acetylthiocholine iodide (ACTI−6 mM) in H2O. Tested compounds were dissolved in DMSO at 10 mg/mL, stored at −20 °C, and subsequently 100 times diluted in H2O before the assay. 10 μL AChE was preincubated for 10 min with 70 μL DTNB and 10 μL compounds solution in 96-well microplates. […] After 30 min at 25 °C, absorbance of the plate was measured at 405 nm using a microplate reader (Tecan Infinite M200). Percentage of inhibition was calculated using the following equation: 100 × (Acontrol − Asample)/(Acontrol − A0), where Acontrol is the average absorbance of the wells in which tested compounds were replaced by water, Asample is the absorbance of the well with tested compound, and A0 the average absorbance of blank wells where AChE was omitted. […]
Each assay was performed in triplicate and results are expressed as mean values ± SD.

The chains behind the UniProt entries cited, without tags or fusion partners. Residues count along the entry.
UniProt O42275, 24-633: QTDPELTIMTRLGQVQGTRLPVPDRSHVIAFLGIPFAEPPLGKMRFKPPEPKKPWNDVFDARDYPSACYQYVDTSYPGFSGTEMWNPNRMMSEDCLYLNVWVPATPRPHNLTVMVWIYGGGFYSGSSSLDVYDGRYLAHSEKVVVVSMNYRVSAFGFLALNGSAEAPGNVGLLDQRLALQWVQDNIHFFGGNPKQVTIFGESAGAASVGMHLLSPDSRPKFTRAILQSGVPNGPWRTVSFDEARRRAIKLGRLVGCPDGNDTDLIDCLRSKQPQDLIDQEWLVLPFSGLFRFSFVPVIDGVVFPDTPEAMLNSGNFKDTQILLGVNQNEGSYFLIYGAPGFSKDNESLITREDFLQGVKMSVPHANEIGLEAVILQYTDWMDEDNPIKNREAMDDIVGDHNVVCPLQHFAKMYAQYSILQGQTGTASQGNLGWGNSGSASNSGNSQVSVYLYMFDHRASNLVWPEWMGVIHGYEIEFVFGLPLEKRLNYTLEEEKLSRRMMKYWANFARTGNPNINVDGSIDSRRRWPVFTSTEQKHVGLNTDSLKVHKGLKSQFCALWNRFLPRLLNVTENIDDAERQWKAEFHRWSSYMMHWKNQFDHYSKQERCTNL

agelorin A [agelorin A (11)] was tested, and the “Acetylcholinesterase IC50” value was “better activity than the reference compound Galantamine” and the IC50 was 190 ± 200 nM.
